Values quoted from earlier work in PMC5897741, “Thermokinetic profile of NDM-1 and its inhibition by small carboxylic acids” (Bioscience Reports, 2018).

Tests used:
Conditions in all cases: 100 μM compound; cited from earlier work
[1] = tested on: BcII
[2] = tested on: VIM-2
[3] = tested on: IMP-1
[4] = tested on: VIM-4

## O=C(O)c1cccc(C(=O)O)n1 [Compound 7, pyridine-2,6-dicarboxylic acid]
[1]
  effect on enzyme activity: barely any effect
[2]
  effect on enzyme activity: barely any effect
[3]
  enzyme activity towards imipenem: 2%
[4]
  effect on enzyme activity: barely any effect
